IC50 data for two molecules are collected here from US8901120B2, “Substituted N-phenylpyrimidin-2-amine analogs as inhibitors of the Axl kinase” (University of Utah Research Foundation, priority 2011, dated 2014).

The target of assay [1] is T1, recombinant human Axl kinase (catalytic domain, amino acids 473-894) (Homo sapiens, UniProt P30530).
T1 construct: catalytic domain, amino acids 473-894; purchased Invitrogen Corporation, Carlsbad, Calif
T1 sequence (P30530 473-894): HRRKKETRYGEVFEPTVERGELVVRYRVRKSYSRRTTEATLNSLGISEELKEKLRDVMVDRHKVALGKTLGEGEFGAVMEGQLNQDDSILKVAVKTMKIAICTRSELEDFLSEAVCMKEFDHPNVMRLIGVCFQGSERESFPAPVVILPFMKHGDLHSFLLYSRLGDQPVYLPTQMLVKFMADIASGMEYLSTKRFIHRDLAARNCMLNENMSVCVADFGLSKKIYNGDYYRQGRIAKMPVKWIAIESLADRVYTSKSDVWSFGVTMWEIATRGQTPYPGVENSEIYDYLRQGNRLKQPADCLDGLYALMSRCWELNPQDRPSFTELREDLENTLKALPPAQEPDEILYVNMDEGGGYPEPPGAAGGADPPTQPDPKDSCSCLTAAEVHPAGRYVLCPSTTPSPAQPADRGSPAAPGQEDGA
Briefly: Axl kinase activity assay (TR-FRET, fluorescein poly-GT substrate). In kind it is biochemical. Particulars: 20 μM ATP, 93 ng/ml Axl kinase, 60 min. How it is done: Test compounds were diluted to desired concentrations in kinase reaction buffer (50 mM HEPES pH 7.5, 10 mM MgCl2, 1 mM EGTA, 2 mM DTT, and 0.01% v/v Tween-20) and were briefly incubated with Axl kinase (Invitrogen Corporation, Carlsbad, Calif.). The Axl kinase used was recombinant human Axl kinase (catalytic domain, amino acids 473-894) with a histidine tag. The reaction was initiated by the addition of ATP and fluorescein-labeled poly-GT substrate (poly Glu:Tyr, 4:1 polymer; Invitrogen). Concentration of the various components in the assay (10 μl reaction volume) were: 1% DMSO, 93 ng/ml Axl kinase, 20 μM ATP, and 200 nM fluorescein poly-GT substrate. Following addition of ATP and fluorescein poly-GT substrate, incubation was for 60 min at room temperature, the enzyme reaction is stopped by addition of 10 μl terbium-labeled anti-phosphotyrosine PY20 antibody in EDTA-containing buffer. Final concentration of EDTA and antibody after addition to the reaction is 10 mM and 2 nM, respectively. […] After one hour incubation at room temperature, fluorescence was measured with excitation of 320 nm and dual emission of 495 and 520 urn on an EnVision microplate reader (PerkinElmer). Signal is expressed in terms of a TR-FRET ratio (fluorescence intensity at 520 nm to 495 nm).
(§1) IC50 values are determined using GraphPad Prism 5 software. […]
Background: Time-resolved FRET reads energy transfer from a long-lived donor to a nearby acceptor.

For the next assay, the system named is PSN-1. Put plainly: Cell viability assay (ATP-Lite), PSN-1. In kind it is cell-based. Particulars: Homo sapiens, PSN1; PSN-1, 96 hours. How it is done:
All cell lines were cultured in media as recommended by American Type Culture Collection (“ATCC”; supplemented with 10% fetal bovine serum (“FBS”) and 1% penicillin/streptomycin (100 IU/ml pencillin and 100 μg/ml streptomycin) at 37° C. and 5% CO2. The cell lines used in these studies included those indicated in Table II below.
For cell proliferation assays, 45 μl containing 1000 cells per well were seeded into solid white 384-well plates in appropriate cell growth media containing 10% FBS and incubated overnight at 37° C. and 5% CO2. The following day, test compounds were diluted in serum free growth media to 10× desired concentrations and 5 μl was added to each well. Combined compound and cells were incubated for 96 hours. Following incubation, 40 μl of ATP-Lite solution (PerkinElmer, Inc., Waltham, Massachussetts) was added to each well, incubated for an additional 10 minutes at room temperature and luminescence was measured on an EnVision microplate reader. Percent cell viability for test compounds was calculated by comparing treated wells to appropriate controls (e.g. vehicle treated) included on each plate.
as §1
The ability of compounds to inhibit the viability of cultured cells was determined using the cell viability assay described above. […] IC50 values were determined as described above. […]

Usually IC50 stands for the concentration needed to halve the response being measured. As to `CN1CCN(Cc2ccc(Nc3ncc(Cl)c(Nc4ccccc4S(=O)(=O)N(C)C)n3)cc2)CC1` [Compound 4], the IC50 in assay [1] was determined as 53 nM.
Turning to `CN1CCC(N(C)c2ccc(Nc3ncc(Cl)c(Nc4ccccc4S(=O)(=O)N(C)C)n3)cc2)CC1` [Compound 5], in the assay with PSN-1, the IC50 stood at 410 nM.
